Test results taken from paper PMC3700404 (Chemistry & biology, 2008).

Chains of the proteins cited; added tags and fusions are not shown.
UniProt P34972, whole entry C257A: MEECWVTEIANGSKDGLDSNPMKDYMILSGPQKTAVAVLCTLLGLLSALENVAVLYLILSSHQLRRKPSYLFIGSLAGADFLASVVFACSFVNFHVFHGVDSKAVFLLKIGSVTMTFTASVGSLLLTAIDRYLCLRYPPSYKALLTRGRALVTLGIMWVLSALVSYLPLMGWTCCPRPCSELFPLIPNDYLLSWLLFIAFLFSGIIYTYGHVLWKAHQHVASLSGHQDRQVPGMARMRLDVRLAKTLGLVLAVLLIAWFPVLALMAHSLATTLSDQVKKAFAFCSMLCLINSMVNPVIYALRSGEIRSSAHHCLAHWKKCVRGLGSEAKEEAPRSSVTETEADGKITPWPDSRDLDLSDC
UniProt P34972, whole entry C257S: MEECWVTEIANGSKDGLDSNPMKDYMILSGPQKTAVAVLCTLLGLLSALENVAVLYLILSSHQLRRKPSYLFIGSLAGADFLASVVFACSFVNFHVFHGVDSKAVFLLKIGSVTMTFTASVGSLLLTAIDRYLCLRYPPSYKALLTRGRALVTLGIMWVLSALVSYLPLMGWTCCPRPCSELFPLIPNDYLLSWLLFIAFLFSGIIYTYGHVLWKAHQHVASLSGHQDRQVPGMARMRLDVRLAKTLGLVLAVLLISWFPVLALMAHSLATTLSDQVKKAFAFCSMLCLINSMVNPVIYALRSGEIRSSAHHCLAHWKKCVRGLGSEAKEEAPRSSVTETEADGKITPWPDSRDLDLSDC
UniProt P34972, whole entry: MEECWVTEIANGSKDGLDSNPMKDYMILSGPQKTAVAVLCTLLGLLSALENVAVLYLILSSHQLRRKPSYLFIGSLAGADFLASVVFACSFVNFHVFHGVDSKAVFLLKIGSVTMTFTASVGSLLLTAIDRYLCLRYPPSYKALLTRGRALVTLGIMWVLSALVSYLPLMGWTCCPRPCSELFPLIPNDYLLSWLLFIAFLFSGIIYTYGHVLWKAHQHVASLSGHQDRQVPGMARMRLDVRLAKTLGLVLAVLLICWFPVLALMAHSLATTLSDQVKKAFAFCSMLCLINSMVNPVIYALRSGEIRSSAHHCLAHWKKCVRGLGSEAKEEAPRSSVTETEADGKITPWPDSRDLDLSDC

Key:
[1] = molecular target: hCB2 C6.47(257)A mutant receptor (Homo sapiens, UniProt P34972, C257A); experiment: Competitive binding assay, hCB2 C6.47
[2] = molecular target: hCB2 C6.47(257)S mutant receptor (Homo sapiens, UniProt P34972, C257S); experiment: Competitive binding assay, hCB2 C6.47
WT hCB2 receptor = WT hCB2 receptor (Homo sapiens, UniProt P34972); experiment: Competitive binding assay, WT hCB2

CCCCC/C=C\C/C=C\C/C=C\C/C=C\CCCC(=O)NCCO [AEA, anandamide, reference compound]
Ki [1]: 211 nM
Ki [2]: 366 nM
Ki (WT hCB2 receptor): 209 nM
